# Measured affinities in a library of Ab-14 heavy chain variants

Target: peptide PDVDLGDISGINAS, taken from heptad repeat 2 (HR2) of SARS-CoV-2 spike.

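Phage display of a naive human antibody library on the peptide gave the parent. Library AAYL49 holds single substitutions and randomly drawn double and triple substitutions in the CDRs. Affinity was read by AlphaSeq, a pooled yeast mating assay with surface-displayed partners. The frequency of each diploid, read from paired DNA barcodes, reflects how well the two displayed proteins bind. The ratio of observed to expected reads was calibrated, replicate by replicate, on BCL2-family standards whose Kd was known from biolayer interferometry. The assay was run in three technical replicates.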

Each scFv is VH, a 15-residue (Gly4Ser)3 linker, VL, as in the parent Ab-14, and differs from it in the CDRs of the heavy chain only.
VH: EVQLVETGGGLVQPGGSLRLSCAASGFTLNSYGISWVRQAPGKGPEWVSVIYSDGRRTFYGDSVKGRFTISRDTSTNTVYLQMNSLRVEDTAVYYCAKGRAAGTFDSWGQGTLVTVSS
VL: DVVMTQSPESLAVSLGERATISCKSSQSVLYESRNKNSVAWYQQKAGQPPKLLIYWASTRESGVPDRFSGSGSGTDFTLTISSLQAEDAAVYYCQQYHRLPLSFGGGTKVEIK

Positions count from residue 1 of the parent VH; Y60C puts C in place of Y.
All variants listed here change S107 of the VH, counted from its first residue.
Each Kd is an estimate from the mating assay, the geometric mean of the replicates in which the pair was seen; lower is stronger.
"nd" marks a missing value. The strain was present, yet no cells mated with the target were sequenced in any replicate, which points to weak or no binding.
Nonspecific signal, from three strains lacking the peptide, appeared in 15% of pairings of library AAYL49, centred on 11 µM (5% of these signals below 680 nM); values are not corrected for it.

With Y60C/S107Y the result was nd (0 of 3 replicates). The variant G26K/G103C/S107F gave 39 nM (3 of 3 replicates). With Y32D/S35Q/S107H the result was nd (0 of 3 replicates). With D62E/K65D/S107N the result was 30 nM (3 of 3 replicates). The variant S63T/R100H/S107E showed 31 nM (3 of 3 replicates). The variant R57F/T58H/S107P showed 220 µM (1 of 3 replicates).

With G61H/K65I/S107K the result was 110 nM (3 of 3 replicates). With G26H/S53E/S107R the result was nd (0 of 3 replicates). The variant N30R/F105Y/S107Y showed 85 µM (3 of 3 replicates). With Y60G/G61E/S107Q the result was nd (0 of 3 replicates). The variant G26A/K65S/S107E showed 150 nM (3 of 3 replicates). With L29I/D54E/S107D the result was nd (0 of 3 replicates).

With Y52L/G55Q/S107I the result was 230 µM (1 of 3 replicates). For N30M/I34N/S107Y, the assay gave 78 µM (1 of 3 replicates). For G26S/Y52W/S107N, the assay gave nd (0 of 3 replicates). With L29E/A101S/S107K the result was 1.2 µM (1 of 3 replicates). For N30G/S35I/S107V, the assay gave 14 µM (1 of 3 replicates). With G26I/T104E/S107N the result was nd (0 of 3 replicates).

For S63Q/T104G/S107F, the assay gave nd (0 of 3 replicates). The variant G61V/S107F gave 23 nM (3 of 3 replicates). With I51G/S107L the result was nd (0 of 3 replicates). The variant G99Y/S107N gave nd (0 of 3 replicates). The variant T58G/R100L/S107V gave 21 µM (2 of 3 replicates). The variant F59T/T104W/S107G gave 1.3 µM (3 of 3 replicates).

The variant I51S/G103D/S107R showed nd (0 of 3 replicates). The variant T28R/A101N/S107P showed nd (0 of 3 replicates). For S107F, the assay gave 44 µM (1 of 3 replicates). The variant S31D/F105Y/S107N gave 140 nM (3 of 3 replicates). For S31E/T104F/S107K, the assay gave 42 nM (3 of 3 replicates). The variant R56C/R57C/S107K showed nd (0 of 3 replicates).

For F27E/R100M/S107A, the assay gave 580 nM (2 of 3 replicates). For N30Y/T104F/S107M, the assay gave nd (0 of 3 replicates). The variant F27R/S107F gave nd (0 of 3 replicates). For R100H/S107I, the assay gave 5.1 nM (3 of 3 replicates). With R57G/D62P/S107F the result was nd (0 of 3 replicates). For S63L/K65P/S107L, the assay gave 89 µM (2 of 3 replicates).

With I51N/T104V/S107M the result was nd (0 of 3 replicates). The variant T104K/S107R gave nd (0 of 3 replicates). With D62R/A102G/S107I the result was 2.3 µM (2 of 3 replicates). The variant N30F/D106F/S107D gave 95 nM (3 of 3 replicates). The variant G26S/R100W/S107P gave 120 nM (3 of 3 replicates). The variant G26T/S35D/S107R showed nd (0 of 3 replicates).

The variant V50L/R56D/S107F showed nd (0 of 3 replicates). The variant Y32M/G99T/S107N showed 27 µM (2 of 3 replicates). For S35A/G103P/S107D, the assay gave 38 µM (3 of 3 replicates).

For reference, 6 entries of the list once more:

changes	Kd (apparent)	replicates with signal
N30M/I34N/S107Y	78 µM	1 of 3
G26A/K65S/S107E	150 nM	3 of 3
I51G/S107L	nd	0 of 3
Y52L/G55Q/S107I	230 µM	1 of 3
I51N/T104V/S107M	nd	0 of 3
T28R/A101N/S107P	nd	0 of 3

Reference: Engelhart et al. 2022, doi:10.1038/s41597-022-01779-4. File: FLAb, binding data.